{"sequences": {"note": "Amino acid sequences for entries named in this document (tags omitted). A change or cut given only in a name is not applied to a line headed by its entry.", "UniProt P0DOV5": "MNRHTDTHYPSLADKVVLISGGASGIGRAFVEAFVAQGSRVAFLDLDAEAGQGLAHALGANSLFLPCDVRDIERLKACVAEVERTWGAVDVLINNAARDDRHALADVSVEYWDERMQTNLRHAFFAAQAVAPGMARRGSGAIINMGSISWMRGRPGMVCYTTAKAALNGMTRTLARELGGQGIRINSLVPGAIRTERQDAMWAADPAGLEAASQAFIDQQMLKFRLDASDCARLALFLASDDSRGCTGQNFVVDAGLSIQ"}, "source": "paper PMC12133307", "about": "“Structure, kinetics, and mechanism of Pseudomonas putida sulfoquinovose dehydrogenase, the first enzyme in the sulfoglycolytic Entner-Doudoroff pathway” (Biochemical Journal, 2025)", "target": "T1, PpSQDH (P. putida SQ dehydrogenase; PpSQ1_00090) (Pseudomonas putida, UniProt P0DOV5)", "T1 construct": "gene PpSQ1_00405", "conditions": "5 mM ligand, 50 mM Tris pH 7.5, 300 mM NaCl"}
{"smiles": "NC(=O)c1ccc[n+]([C@@H]2O[C@H](COP(=O)(O)OP(=O)(O)OC[C@H]3O[C@@H](n4cnc5c(N)ncnc54)[C@H](OP(=O)(O)O)[C@@H]3O)[C@@H](O)[C@H]2O)c1", "note": "[NADP^+]", "values": [{"measurement": "Tm decrease", "value": -4, "unit": "°C"}]}
